Assay results published in ChEMBL document CHEMBL1152608, “Design, synthesis, and X-ray crystal structures of 2,4-diaminofuro[2,3-d]pyrimidines as multireceptor tyrosine kinase and dihydrofolate reductase inhibitors” (Bioorg Med Chem, 2009).

Experiment: Selectivity index, ratio of IC50 for rat liver DHFR to Toxoplasma gondii DHFR

For `COc1ccccc1/C(C)=C\c1coc2nc(N)nc(N)c12`, the Ratio IC50 was 2.58.

For `COc1ccccc1/C(C)=C/c1coc2nc(N)nc(N)c12`, the Ratio IC50 was 4.62.
